# From ChEMBL document CHEMBL4350967, “The Trifluoromethyl Group as a Bioisosteric Replacement of the Aliphatic Nitro Group in CB1 Receptor Positive Allosteric Modulators” (J Med Chem, 2019)
# Protein sequences, listed by entry. Tags and fused reporters are not part of them.
# UniProt P21554, whole entry: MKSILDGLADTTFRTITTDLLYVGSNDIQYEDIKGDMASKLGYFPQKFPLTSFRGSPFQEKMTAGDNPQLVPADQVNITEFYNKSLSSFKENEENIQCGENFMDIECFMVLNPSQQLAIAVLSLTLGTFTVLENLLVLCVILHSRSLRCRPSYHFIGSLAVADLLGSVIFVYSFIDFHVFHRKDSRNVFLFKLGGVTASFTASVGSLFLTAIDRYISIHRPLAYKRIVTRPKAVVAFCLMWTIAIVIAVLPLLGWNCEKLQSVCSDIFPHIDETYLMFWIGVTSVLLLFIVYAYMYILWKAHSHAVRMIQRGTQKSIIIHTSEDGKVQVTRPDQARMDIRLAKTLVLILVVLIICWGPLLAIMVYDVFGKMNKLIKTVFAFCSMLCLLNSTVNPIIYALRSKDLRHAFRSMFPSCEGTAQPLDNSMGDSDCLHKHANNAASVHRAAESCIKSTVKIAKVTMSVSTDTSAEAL
# Tests used:
# Assay type in all cases: cell-based
# Cannabinoid receptor 1 [1] = target: T1, Cannabinoid receptor 1 (Homo sapiens, UniProt P21554); assay: Positive allosteric modulation of human CB1 receptor expressed in CHOK1 cells assessed as increase in CP55940-induced beta-arrestin recruitment at 1000 nM preincubated for 30 mins followed by CP55940 addition and measured after 90 to 180 mins by PathHunter assay relative to CP55940
# Cannabinoid receptor 1 [2] = target: T1, Cannabinoid receptor 1; assay: Positive allosteric modulation of human CB1 receptor expressed in CHOK1 cells assessed as increase in CP55940-induced beta-arrestin recruitment at 500 nM preincubated for 30 mins followed by CP55940 addition and measured after 90 to 180 mins by PathHunter assay relative to CP55940
# Cannabinoid receptor 1 [3] = target: T1, Cannabinoid receptor 1; assay: Positive allosteric modulation of human CB1 receptor expressed in CHOK1 cells assessed as increase in CP55940-induced beta-arrestin recruitment at 200 nM preincubated for 30 mins followed by CP55940 addition and measured after 90 to 180 mins by PathHunter assay relative to CP55940
SMILES,Activity (Cannabinoid receptor 1 [2]) [%],other results
N#CCC(c1ccccc1)c1c(-c2ccccc2)[nH]c2cc(Cl)ccc12 (racemic),,Activity (Cannabinoid receptor 1 [1]): > 50%
O=[N+]([O-])CC(c1cccs1)c1c(-c2ccccc2)[nH]c2cc(C(F)(F)F)ccc12 (racemic),> 50,
N#Cc1ccc2c(C(CC(F)(F)F)c3cccs3)c(-c3ccccc3)[nH]c2c1 (racemic),,Activity (Cannabinoid receptor 1 [3]): > 50%
N#Cc1ccc2c([C@@H](CC(F)(F)F)c3cccs3)c(-c3ccccc3)[nH]c2c1,> 50,
N#Cc1ccc2c([C@H](CC(F)(F)F)c3cccs3)c(-c3ccccc3)[nH]c2c1,> 50,
